From BindingDB's records for 18825527 come the findings set out here.

Protein sequences, listed by entry. Tags and fused reporters are not part of them. Residues count along the entry.
UniProt P22303, 32-614 limits assumed: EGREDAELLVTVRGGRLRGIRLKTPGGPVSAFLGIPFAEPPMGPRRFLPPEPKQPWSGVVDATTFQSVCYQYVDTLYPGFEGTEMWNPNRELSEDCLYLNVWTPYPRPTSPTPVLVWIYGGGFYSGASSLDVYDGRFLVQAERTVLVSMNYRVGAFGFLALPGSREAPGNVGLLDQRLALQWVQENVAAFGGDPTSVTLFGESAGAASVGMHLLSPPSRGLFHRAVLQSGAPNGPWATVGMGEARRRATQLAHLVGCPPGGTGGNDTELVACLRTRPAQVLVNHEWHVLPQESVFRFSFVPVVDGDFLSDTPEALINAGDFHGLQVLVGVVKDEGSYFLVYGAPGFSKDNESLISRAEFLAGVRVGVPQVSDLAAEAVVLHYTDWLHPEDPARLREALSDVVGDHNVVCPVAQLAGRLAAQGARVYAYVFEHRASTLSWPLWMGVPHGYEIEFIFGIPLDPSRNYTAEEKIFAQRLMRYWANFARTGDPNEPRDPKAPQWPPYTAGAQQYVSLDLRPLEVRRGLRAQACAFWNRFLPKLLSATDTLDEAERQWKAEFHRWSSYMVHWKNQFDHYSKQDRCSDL
UniProt P06276, 29-602 limits assumed: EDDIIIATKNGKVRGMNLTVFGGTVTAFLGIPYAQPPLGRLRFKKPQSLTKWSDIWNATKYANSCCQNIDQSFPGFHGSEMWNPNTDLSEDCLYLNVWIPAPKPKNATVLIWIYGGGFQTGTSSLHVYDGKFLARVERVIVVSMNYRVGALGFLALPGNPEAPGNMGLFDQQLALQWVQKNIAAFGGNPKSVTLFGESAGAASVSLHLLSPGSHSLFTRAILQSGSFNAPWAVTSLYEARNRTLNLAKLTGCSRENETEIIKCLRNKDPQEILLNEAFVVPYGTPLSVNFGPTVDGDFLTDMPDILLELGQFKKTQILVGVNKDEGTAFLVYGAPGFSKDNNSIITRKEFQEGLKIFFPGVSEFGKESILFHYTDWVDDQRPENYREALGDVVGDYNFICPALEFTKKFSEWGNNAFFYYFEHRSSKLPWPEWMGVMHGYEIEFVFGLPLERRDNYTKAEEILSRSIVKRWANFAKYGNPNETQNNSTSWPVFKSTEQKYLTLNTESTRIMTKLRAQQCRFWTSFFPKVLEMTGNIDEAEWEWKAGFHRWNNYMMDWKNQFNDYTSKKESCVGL
UniProt P21836, 32-614 limits assumed: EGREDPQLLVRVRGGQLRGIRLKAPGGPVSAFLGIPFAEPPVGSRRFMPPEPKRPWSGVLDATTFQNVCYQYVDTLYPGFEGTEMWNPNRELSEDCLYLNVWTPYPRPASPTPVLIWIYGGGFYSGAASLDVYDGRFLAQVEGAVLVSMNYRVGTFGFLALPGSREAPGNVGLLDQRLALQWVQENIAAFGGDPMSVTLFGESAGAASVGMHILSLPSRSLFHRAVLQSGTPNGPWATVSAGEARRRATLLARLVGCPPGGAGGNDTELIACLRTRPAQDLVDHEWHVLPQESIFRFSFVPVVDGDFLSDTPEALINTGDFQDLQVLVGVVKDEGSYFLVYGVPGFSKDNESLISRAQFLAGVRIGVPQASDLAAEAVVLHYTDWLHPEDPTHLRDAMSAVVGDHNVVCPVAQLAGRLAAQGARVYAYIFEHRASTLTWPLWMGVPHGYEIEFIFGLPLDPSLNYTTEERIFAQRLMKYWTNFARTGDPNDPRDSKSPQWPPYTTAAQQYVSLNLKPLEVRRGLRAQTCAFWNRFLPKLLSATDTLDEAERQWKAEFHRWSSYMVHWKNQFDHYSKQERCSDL
UniProt Q03311, 30-603 limits assumed: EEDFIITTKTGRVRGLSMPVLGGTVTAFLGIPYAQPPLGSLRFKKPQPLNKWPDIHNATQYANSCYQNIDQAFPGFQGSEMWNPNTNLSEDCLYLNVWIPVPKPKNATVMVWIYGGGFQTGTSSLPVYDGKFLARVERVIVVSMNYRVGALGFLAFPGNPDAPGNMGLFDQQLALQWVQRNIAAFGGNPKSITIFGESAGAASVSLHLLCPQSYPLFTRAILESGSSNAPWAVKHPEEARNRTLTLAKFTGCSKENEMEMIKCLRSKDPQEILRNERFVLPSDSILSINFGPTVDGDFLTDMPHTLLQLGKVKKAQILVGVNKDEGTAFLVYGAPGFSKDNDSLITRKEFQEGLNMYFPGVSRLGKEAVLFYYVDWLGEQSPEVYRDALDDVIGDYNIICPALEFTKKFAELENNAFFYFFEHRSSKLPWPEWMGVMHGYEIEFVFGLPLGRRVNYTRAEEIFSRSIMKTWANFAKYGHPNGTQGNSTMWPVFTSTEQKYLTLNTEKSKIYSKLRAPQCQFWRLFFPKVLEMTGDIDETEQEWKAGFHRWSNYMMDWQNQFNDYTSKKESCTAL

The structures appear in SMILES notation.

What all share (assay): Inhibition Assay
For test [1], the target named is Acetylcholinesterase (Homo sapiens, UniProt P22303). The settings on record: pH 7.4.
The target of test [2] is Cholinesterase (Homo sapiens, UniProt P06276). To be noted: pH 7.4.
Test [3] deals with Acetylcholinesterase (Mus musculus, UniProt P21836).
In test [4] the target is Cholinesterase (Mus musculus, UniProt Q03311).

As for `Cc1ccc(C(=O)NP(=O)(Cl)Cl)cc1`, on Acetylcholinesterase [1], the half-inhibitory concentration (IC50) (usually the concentration needed to halve the response being measured) was found to be 260 µM and the Kd (commonly the concentration at which binding is half-saturated) worked out at 554 µM. In addition, on Cholinesterase [2], the 50% inhibitory concentration (IC50) is 1200 µM and the Kd was determined as 8900 µM.

`O=C(NP(=O)(Cl)Cl)c1ccc(Br)cc1`: the half-maximal inhibitory concentration (IC50) at Acetylcholinesterase [1] was determined as 57 µM; against Acetylcholinesterase [3] (pH 7.4), 130 µM; against Cholinesterase [2] it was 650 µM; against Cholinesterase [4] it was 1600 µM. Besides, the values for the Kd on Acetylcholinesterase [1] and on Cholinesterase [2] were 230 µM and 2100 µM, respectively.

For `O=C(NP(=O)(Cl)Cl)c1ccc(Cl)cc1`, on Acetylcholinesterase [1], the IC50 amounted to 87000 µM and the Kd stood at 206 µM. On Cholinesterase [2], this compound gave an IC50 of 920 µM and a Kd of 43000 µM.

Consider `O=C(NP(=O)(Cl)Cl)c1ccccc1`, for which the IC50 was found to be 385 µM against Acetylcholinesterase [1], 820 µM on Acetylcholinesterase [3], 4800 µM against Cholinesterase [2] and 9900 µM at Cholinesterase [4]. Moreover, the Kd on Acetylcholinesterase [1] came out at 1100 µM; at Cholinesterase [2], 18000 µM.
